# Test results reported in patent US6869783B1, “Method for producing chiral carboxylic acids from nitriles with the assistance of a nitrilase or microoganisms which contain a gene for the nitrilase” (BASF Aktiengesellschaft, priority 1998, dated 2005).
# Test system: nitrilase from Alcaligenes faecalis 1650 (whole cells)
# Assay: Determination of the enzymatic selectivity for mandelonitrile with Alcaligenes faecalis 1650 cells
# Details: 8.3 mM mandelonitrile, pH 6.8, 30° C, at 50% conversion
structure (smiles),measurement,value
N#CC(O)c1ccccc1 (centres unmarked),optical purity of the R-(-)-mandelic acid formed (eeR-MA),98%
same,selectivity of the enzyme (=E),499
